US20100098657A1, “Method of Treating Cancer with Immunomodulatory Compounds and IgG” (priority 2007, published 2010)

Tested on: Fas-L
Assay: Fas-L expression on CD56+ NK cells (flow cytometry)
Type: cell-based, human
Conditions: IL-2 10 ng/mL with immobilized IgG
Experimental: Cytometry was undertaken on 50 μL samples containing 1×10^6 cells/mL in washing buffer, 2% FBS with 0.1% NaN3 in PBS. Fluorochrome-conjugated antibodies, unconjugated antibodies, and isotype control mAb were obtained from PharMingen (San Diego, Calif.). The cells were stained with anti-CD56-PE, anti-FasL-FITC or isotype control mAb (1 μg/10^6 cells), and analyzed by flow cytometry according to the manufacturer's instructions.

## IL-2: cytokine interleukin-2 (R&D Systems)
  NK cell Fas-L expression: comparable to lenalidomide treatment
